By UniProt entry, the sequences of proteins in these tests, tags left out.
UniProt B4E5Y7, entry or part of it: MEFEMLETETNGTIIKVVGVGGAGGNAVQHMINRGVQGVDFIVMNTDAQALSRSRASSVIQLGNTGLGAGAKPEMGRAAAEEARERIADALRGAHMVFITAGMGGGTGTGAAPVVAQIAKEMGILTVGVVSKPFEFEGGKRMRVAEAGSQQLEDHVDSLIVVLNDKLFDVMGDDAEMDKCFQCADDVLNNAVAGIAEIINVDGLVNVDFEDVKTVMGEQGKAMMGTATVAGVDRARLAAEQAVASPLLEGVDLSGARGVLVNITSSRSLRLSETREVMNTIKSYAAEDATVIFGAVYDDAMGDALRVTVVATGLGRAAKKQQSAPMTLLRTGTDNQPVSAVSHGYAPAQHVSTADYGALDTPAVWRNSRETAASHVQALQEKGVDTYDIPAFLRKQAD

In publication PMC7154053, “Chemical, Metabolic, and Cellular Characterization of a FtsZ Inhibitor Effective Against Burkholderia cenocepacia” (Frontiers in Microbiology, 2020):

Experiments:
[1] = target: Burkholderia cenocepacia purified FtsZ protein (Burkholderia cenocepacia, UniProt B4E5Y7); assay: biochemical
Protocol: All the recombinant FtsZ proteins were expressed at 20°C overnight in E. coli BL21(DE3) cells, upon induction with 0.5 mM IPTG, and purified using the same protocol assessed for the wild-type B. cenocepacia FtsZ (Hogan et al., [2018]).
GTPase enzyme activity was determined using a pyruvate kinase/L-lactic dehydrogenase (PK/LDH) spectrophotometric coupled assay (Ingerman and Nunnari, [2005]). The assays were performed at 30°C, in a reaction mixture containing […] Hepes pH 7.5, 5 mM MgCl2, 5 mM KCl, 10 U PK/LDH, 0.25 mM NADH, 0.25 mM PEP, and 5–10 μM FtsZ, and initiated by the addition of 0.5 mM GTP. Alternatively, GTPase activity was determined by measuring the release of phosphate using the malachite green assay (Baykov et al., [1988]).
(1) A[I]=A[0]×(1-[I]/[I]+IC50)
where A[I] is the enzyme activity at inhibitor concentration [I] and A[0] is the enzyme activity without inhibitor.

[2] = target: T1, B. cenocepacia nitroreductase BCAL0539 (BcNR) (Burkholderia cenocepacia, UniProt B4E8I2); assay: BcNR nitroreductase steady-state kinetics (NADPH decrease at 340 nm); type: biochemical; conditions: C109 vs 4-nitrobenzoic acid
T1 sequence (B4E8I2 1-242): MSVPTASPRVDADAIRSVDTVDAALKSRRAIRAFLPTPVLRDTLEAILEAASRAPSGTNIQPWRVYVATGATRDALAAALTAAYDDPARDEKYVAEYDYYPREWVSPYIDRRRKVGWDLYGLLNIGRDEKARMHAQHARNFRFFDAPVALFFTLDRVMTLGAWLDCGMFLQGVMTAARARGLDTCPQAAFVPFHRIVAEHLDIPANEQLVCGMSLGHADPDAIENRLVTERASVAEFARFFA
Protocol: Enzyme activity assay was determined at 37°C using 4-nitrobenzoic acid or C109 as a substrate and NADPH as cofactor, by measuring the decrease in absorbance at 340 nm of NADPH (ε = 6,220 M^−1 cm^−1). The reaction mixture typically contained 50 mM potassium phosphate pH 8.0, 50 mM KCl, 5–10 μM BcNR, and reactions were started by adding the substrate. Steady-state kinetics parameters were determined by assaying the enzyme at variable concentrations of substrate (10–500 μM). The experiments were performed in triplicate, and the kinetic constants Km and kcat determined by fitting the data to the Michaelis-Menten equation using Origin 8 software.

COC(=O)CSc1ccc2nsnc2c1[N+](=O)[O-] [C109, methyl [(4-nitro-2,1,3-benzothiadiazol-5-yl)thio]acetate]
IC50 [1]: 8 µM
Km, fold lower than for 4-nitrobenzoic acid [2]: about 2 fold
Vmax, fold higher than for 4-nitrobenzoic acid [2]: 10 fold
specificity constant, fold higher than for 4-nitrobenzoic acid [2]: about 20 fold
